The chains behind the UniProt entries cited, without tags or fusion partners. Where a name states a change or a piece, a line headed by the entry shows the natural chain unless it says otherwise.
UniProt O00329: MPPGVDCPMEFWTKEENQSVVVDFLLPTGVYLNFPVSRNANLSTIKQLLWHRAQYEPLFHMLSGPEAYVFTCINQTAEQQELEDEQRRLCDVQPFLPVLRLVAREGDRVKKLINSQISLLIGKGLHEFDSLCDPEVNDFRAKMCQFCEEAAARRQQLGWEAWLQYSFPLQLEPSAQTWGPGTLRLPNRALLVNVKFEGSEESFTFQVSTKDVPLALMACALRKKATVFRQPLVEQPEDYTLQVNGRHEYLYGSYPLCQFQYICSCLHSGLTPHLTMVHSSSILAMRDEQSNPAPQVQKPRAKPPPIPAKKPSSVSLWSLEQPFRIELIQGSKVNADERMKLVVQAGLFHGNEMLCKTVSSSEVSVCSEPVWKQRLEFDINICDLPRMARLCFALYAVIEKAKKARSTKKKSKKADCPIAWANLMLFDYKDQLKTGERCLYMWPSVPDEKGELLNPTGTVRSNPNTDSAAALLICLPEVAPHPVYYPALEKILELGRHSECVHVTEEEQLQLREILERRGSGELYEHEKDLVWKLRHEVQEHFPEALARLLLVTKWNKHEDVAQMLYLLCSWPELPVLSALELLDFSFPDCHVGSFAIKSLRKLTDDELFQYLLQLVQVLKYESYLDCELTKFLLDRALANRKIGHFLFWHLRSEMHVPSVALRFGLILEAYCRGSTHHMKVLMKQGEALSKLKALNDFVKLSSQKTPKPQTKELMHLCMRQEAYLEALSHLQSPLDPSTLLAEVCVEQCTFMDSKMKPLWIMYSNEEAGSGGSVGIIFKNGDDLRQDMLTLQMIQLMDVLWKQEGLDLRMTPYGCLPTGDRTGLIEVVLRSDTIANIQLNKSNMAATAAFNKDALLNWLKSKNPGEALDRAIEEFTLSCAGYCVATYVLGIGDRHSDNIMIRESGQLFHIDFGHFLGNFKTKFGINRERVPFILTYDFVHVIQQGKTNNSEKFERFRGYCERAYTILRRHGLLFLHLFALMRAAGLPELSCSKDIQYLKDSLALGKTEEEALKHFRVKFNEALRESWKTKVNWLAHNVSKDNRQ

In article PMC5288202, “Simultaneous inhibition of Vps34 kinase would enhance PI3Kδ inhibitor cytotoxicity in the B-cell malignancies” (Oncotarget, 2016):

Target: PI3Kδ (Homo sapiens, UniProt O00329)
Conditions: biochemical

Structure (SMILES): Cc1nc(NC(=O)CN)sc1-c1cnc(Cl)c(NS(=O)(=O)c2ccc(C(C)(C)C)cc2)c1 [PI3KD/V-IN-01, 2-amino-N-(5-(5-(4-tert-butylphenylsulfonamido)-6-chloropyridin-3-yl)-4-methylthiazol-2-yl)acetamide]
- selectivity over other PI3K isoforms: 10-1500 fold
